# Sampled rows, rich in hits. Any-hit rate of the full collection: about 13%.
# Lamin A splicing – changes lamin A minigene splicing in HeLa cells. HeLa LMNA splicing GFP/RFP minigene ratio, 48 h. Potency, µM (series often up to 46.1 µM), inactives show top-dose ratio change, negative = inhibition, most hits filed as inhibitors. 200,000 tested, 0.01% active; active = well fitted inhibition curve with a large enough effect in the signal ratio, with a control signal flat, not every such curve was filed as active; inconclusive = small, poorly fitted or top-dose-only effect, or effect the other way, or a change in a side signal; the % refers to the signal ratio; also: potency is read from the fitted curve at half-maximal effect; % is scaled to controls: 0 for no effect and ±100 for the full control effect
#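 S3 HeLa stable clones carrying a lamin A-EGFP splicing minigene plus DsRed2 were seeded at 600 cells/well in Opti-MEM with 2% FBS, pin-dosed and incubated 48 h at 37°C. Acumen cytometry (488 nm) gave the GFP/RFP total-intensity ratio.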
# Sfp PPTase inh – qHTS Assay for Inhibitors of Bacillus subtilis Sfp phosphopantetheinyl transferase (PPTase); Biochemical Sfp PPTase activity, qHTS; Potency, µM, for inactives: max response, negative = inhibition, actives largely listed as inhibitors; actives 3.5% (n = 310,000); AID 1490, 2009; active = well fitted inhibition curve with a large enough effect; inconclusive = small, poorly fitted or top-dose-only effect, or another doubt; inactive = no such curve, though single readings can be large or run the other way;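 note: the enzyme is Sfp with the accession as filed and its product quenches rhodamine fluorescence; potency is the fitted concentration of half-maximal effect; 0% = enzyme reaction without inhibitor and -100% = no enzyme wells; top concentration of the series not given in the record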
#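 After 15 min at room temperature with compound, 15 nM Sfp received 5 uM rhodamine-CoA plus 12.5 uM BHQ-2-ybbR (50 mM Hepes pH 7.6, 10 mM MgCl2). Rate came from the fluorescence difference over 30 min, ex 525/em 598 nm.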
# G9a inh – inhibitors of human histone lysine methyltransferase G9a. Q96KQ7. G9a H3K9 monomethylation, AlphaScreen, 2 h. Potency, µM (highest dose often 102 µM), for the others: at the top dose activity, negative = inhibition, most hits filed as inhibitors. 350,000 tested, 8.8% active. AID 504332; also: potency is read from the fitted curve at half-maximal effect; % is scaled to controls: 0 for no effect and ±100 for the full control effect; nearly all actives have a fitted effect of over 75% in size
#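 Quantitative HTS format: methyltransferase activity on a biotin-tagged H3K9 peptide is measured by AlphaScreen, using a rabbit anti-monomethyl-H3K9 antibody with streptavidin donor and anti-IgG acceptor beads. Final levels are 20 nM enzyme, 500 nM peptide, 20 uM SAM; 2 h RT.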
# KDM4E inh – JMJD2E (human) inhibition | B2RXH2 | JMJD2E catalytic domain, FDH-coupled NADH fluorescence (FDH is formaldehyde dehydrogenase) | Potency, µM (titrated, usually from 57.1 µM), without a hit: at the highest dose activity change, negative = inhibition, actives largely listed as inhibitors | 230,000 tested, 1.6% active | AID 2147; active = well fitted inhibition curve with a large enough effect, not every such curve was filed as active; inconclusive = small, poorly fitted or top-dose-only effect, or another doubt; inactive = no such curve, though single readings can be large or run the other way;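 also: potency is read from the fitted curve at half-maximal effect; 0% = wells with enzyme and -100% = buffer wells without enzyme; nearly all actives have a fitted effect of over 50% in size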
# ALDH1A1 inh – inhibitors of human aldehyde dehydrogenase 1A1. Purified ALDH1A1, NADH fluorescence, propionaldehyde substrate. 220,000 tested, 7.3% active. Potency, µM (top dose mostly 75.3 µM), for the others: at the top dose activity, negative = inhibition, usual class: inhibitors; active = well fitted inhibition curve with a large enough effect, not every such curve was filed as active; inconclusive = small, poorly fitted or top-dose-only effect, or another doubt; inactive = no such curve, though single readings can be large or run the other way;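 also: potency is read from the fitted curve at half-maximal effect; plate controls were no enzyme wells and a reference inhibitor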
# miR-21 reporter – miR-21 reporter, rising signal | HeLa miR-21 FLuc reporter, luciferase, 48 h | Potency, µM (top dose mostly 38.3 µM), inactives show at the top dose reporter change, positive = more light | 340,000 tested, under 10 active | AID 2288; active = well fitted rising curve with a large enough effect; inconclusive = small, poorly fitted or top-dose-only effect; inactive = no such curve, though single readings can be large or run the other way;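 further: % of control where 0% means no effect; miR-21 action dims this reporter so a rising signal means less miR-21 action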
#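 HeLa cells stably expressing CMV-driven firefly luciferase with a downstream miR-21 binding sequence, endogenously expressing miR-21, were treated with titrations (up to about 40uM final) for 48 hours at 37 degree Celsius. Luciferase luminescence was read after lysis.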
# Active calls of the source: *; ? = inconclusive; . = no result given; [ ] = remark or other dose. Unless noted, calls follow the shape of the dose curve; as a rule, active = well fitted curve in the direction sought with a large enough effect; inconclusive = small, poorly fitted or top-dose-only effect, or another doubt; inactive = no such curve, though single readings can be large; an effect the other way counts as inactive or inconclusive.
no.	SMILES	KDM4E inh	miR-21 reporter	Sfp PPTase inh
1	Cc1ccc2c(c1Br)/C(=N/N1C(=O)c3ccccc3C1=O)C(=O)N2	1%	-8%	-4%
2	Cc1csc(N(C)C(=O)CSc2nnc(COc3cccc4ccccc34)o2)n1	5%	9%	1%
3	Cc1cc2nc(-c3ccc(NC(=O)c4ccccc4F)cc3)oc2cc1C	.	-37%	.
4	Cc1occc1C(=O)Nc1ccc2c(c1)OCCO2	2%	-42%	?
5	Cc1cc(C(=O)Nc2ccc3c(c2)OCCO3)c(C)o1	1%	-46%	16%
6	Cc1cccc(NC(=O)c2cnc3scc(C)n3c2=O)c1	3%	-47%	13%
7	Cc1cc(NS(=O)(=O)c2ccc(NC(=O)c3cnc4scc(C)n4c3=O)cc2)nc(C)n1	-7%	-29%	-14%
8	Cc1csc2ncc(C(=O)Nc3ccc4c(c3)OCCO4)c(=O)n12	0%	-69%	14%
9	Cc1noc(NS(=O)(=O)c2ccc(NC(=O)c3cnc4scc(C)n4c3=O)cc2)c1C	-10%	-5%	7%
10	COc1ccc(-n2nnnc2C2CCN(S(=O)(=O)c3cc(Cl)ccc3OC)CC2)cc1	.	?	.
11	CCN(c1cccc(C)c1)S(=O)(=O)c1ccc(-n2cccn2)cc1	.	7%	12%
12	COc1cc(CN2CCCCCC2)cc([N+](=O)[O-])c1O	.	-1%	-24%
13	COc1cc(CN2CCc3ccccc3C2)cc([N+](=O)[O-])c1O	.	-3%	?
14	CCOc1cc(CN2CCCC(N3CCc4ccccc4C3)C2)ccc1O (stereo not drawn)	.	-4%	-3%
15	COc1cc(CN2CCc3ccccc3C2)ccc1O	?	?	-20%

no.	ALDH1A1 inh	Lamin A splicing	G9a inh
1	0.75µM*	-1%	14%
2	?	?	10µM*
3	.	.	9%[59 µM]
4	13µM*	0%	-16%[12.7 µM]
5	0%	-3%	?
6	-15%	-8%	11%[59 µM]
7	?	-18%	?
8	8.9µM*	-8%	?
9	5%	-7%	50µM*
10	.	.	-4%[59 µM]
11	.	.	133%
12	.	.	20%[0.501 µM]
13	.	.	8.9µM*
14	.	.	.
15	?	.	14µM*

# Individual results from the list.
# no. 12 in G9a inh has 20%[0.501 µM]
# no. 1 in miR-21 reporter has -8%

# 2 of the compounds above, bar-delimited:
No. | SMILES | KDM4E inh | miR-21 reporter | Sfp PPTase inh | ALDH1A1 inh | Lamin A splicing | G9a inh
15 | COc1cc(CN2CCc3ccccc3C2)ccc1O | ? | ? | -20% | ? | . | 14µM*
2 | Cc1csc(N(C)C(=O)CSc2nnc(COc3cccc4ccccc34)o2)n1 | 5% | 9% | 1% | ? | ? | 10µM*

# The list goes on:
no.	SMILES	KDM4E inh	miR-21 reporter	Sfp PPTase inh
16	COC(=O)c1cccc(C(=O)N2CCCC(CCC(=O)N(C)CCc3ccccn3)C2)c1 (stereo not drawn)	.	-1%	13%
17	Cc1ccc(NC(=O)C2CC(=O)n3ncnc3N2)cc1C (stereo not drawn)	-4%	-2%	15%
18	O=C(Nc1ccc(F)cc1)C1CC(=O)n2ncnc2N1 (stereo not drawn)	2%	0%	21%
19	O=Cc1cn(CCC(=O)O)nc1-c1cccc(Cl)c1	-3%	-2%	23%
20	N#CCCn1cc(/C=C2\NC(=S)N(c3ccccc3)C2=O)c(-c2ccc(F)cc2)n1	-16%	7%	-11%
21	O=C(O)CCn1cc(/C=C2\NC(=S)N(c3ccccc3)C2=O)c(-c2ccc(Br)cc2)n1	3%	-2%	12%
22	O=C(COc1ccc(Cl)cc1)NCC(c1ccco1)S(=O)(=O)c1ccc(Cl)cc1 (stereo not drawn)	.	12%	.
23	Cc1nnc(NC(=O)c2cccc(F)c2)s1	-5%	-12%	19%
24	O=C(Nc1nnc(-c2cccs2)s1)c1cccc(F)c1	?	-32%	-29%
25	CCOc1ccc(NC(=O)c2c(Nc3ccccc3C)sc(C(=O)c3ccccc3)c2N)cc1	.	?	.
26	COc1ccc(Cl)cc1Nc1sc(C(=O)c2ccccc2)c(N)c1C(=O)Nc1ccccc1	.	1%	.
27	CCOc1ccccc1Nc1sc(C(=O)c2ccccc2)c(N)c1C(=O)Nc1ccc(F)cc1	.	11%	.
28	Cc1ccccc1Nc1sc(C(=O)Nc2cccc(Cl)c2)c(N)c1C(N)=O	-4%	-2%	-4%
29	CCOC(=O)CC1C(=O)NCCN1C(=S)NC(=O)c1ccccc1OC (stereo not drawn)	.	-3%	-20%

no.	ALDH1A1 inh	Lamin A splicing	G9a inh
16	.	.	.
17	?	?	56µM*
18	3%	-7%[9.22 µM]	-1%
19	-17%	-13%[46 µM]	-41%
20	25µM*	-10%[9.22 µM]	-18%[59 µM]
21	-6%	.	20µM*
22	.	?	4%[59 µM]
23	?	-6%	-35%[59 µM]
24	?	-8%[46 µM]	32µM*
25	.	?	13µM*
26	.	?	16µM*
27	.	0%[46 µM]	?
28	1%	-14%	79µM*
29	.	.	.

# Three entries out of the list above, arranged by the value under Sfp PPTase inh, highest first.
nr	canonical_smiles	KDM4E inh	miR-21 reporter	Sfp PPTase inh	ALDH1A1 inh	G9a inh
19	O=Cc1cn(CCC(=O)O)nc1-c1cccc(Cl)c1	-3%	-2%	23%	-17%	-41%
21	O=C(O)CCn1cc(/C=C2\NC(=S)N(c3ccccc3)C2=O)c(-c2ccc(Br)cc2)n1	3%	-2%	12%	-6%	20µM*
28	Cc1ccccc1Nc1sc(C(=O)Nc2cccc(Cl)c2)c(N)c1C(N)=O	-4%	-2%	-4%	1%	79µM*
